# Experimental data published in ChEMBL document CHEMBL4396871, “Leveraging a Low-Affinity Diazaspiro Orthosteric Fragment to Reduce Dopamine D3 Receptor (D3R) Ligand Promiscuity across Highly Conserved Aminergic G-Protein-Coupled Receptors (GPCRs)” (J Med Chem, 2019).
# Chains of the proteins cited; added tags and fusions are not shown.
# UniProt P21728, whole entry: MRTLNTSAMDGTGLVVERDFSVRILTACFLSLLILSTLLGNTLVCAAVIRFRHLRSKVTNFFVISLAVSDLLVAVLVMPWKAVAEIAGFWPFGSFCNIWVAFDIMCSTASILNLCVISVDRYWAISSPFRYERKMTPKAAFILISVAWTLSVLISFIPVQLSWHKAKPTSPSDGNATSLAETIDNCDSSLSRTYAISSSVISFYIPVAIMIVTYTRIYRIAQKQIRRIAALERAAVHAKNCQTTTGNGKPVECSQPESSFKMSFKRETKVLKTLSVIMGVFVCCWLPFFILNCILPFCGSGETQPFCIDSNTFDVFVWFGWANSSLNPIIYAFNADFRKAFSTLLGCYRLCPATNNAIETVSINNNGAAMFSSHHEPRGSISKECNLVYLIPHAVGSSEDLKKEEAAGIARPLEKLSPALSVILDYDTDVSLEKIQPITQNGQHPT
# Tests used:
# Homo sapiens = organism: Homo sapiens; assay: Selectivity ratio of Ki for displacement of [125I]IABN from recombinant human D2 long receptor stably expressed in HEK293 cell membranes to Ki for displacement of [125I]IABN from recombinant human D3 receptor stably expressed in HEK293 cell membranes
# D(1A) dopamine receptor = D(1A) dopamine receptor (Homo sapiens, UniProt P21728); settings: 10 uM
inhibition (D(1A) dopamine receptor) [%],SMILES,Ratio Ki (Homo sapiens)
–,COc1ccccc1N1CCC2(CCN(CCCSc3nnc(-c4ccccc4)n3C)CC2)C1,315
< 50,COc1ccccc1N1CCN(CCCSc2nnc(-c3ccccc3)n2C)CC1,40.2
< 50,COc1ccccc1N1CCC2(CCN(CCCSc3nnc(-c4ccccc4)n3C)CC2)CC1,905
